# Publication PMC4790425 (Journal of medicinal chemistry, 2015)
# Protein sequences, listed by entry. Tags and fused reporters are not part of them.
# UniProt P32238, whole entry: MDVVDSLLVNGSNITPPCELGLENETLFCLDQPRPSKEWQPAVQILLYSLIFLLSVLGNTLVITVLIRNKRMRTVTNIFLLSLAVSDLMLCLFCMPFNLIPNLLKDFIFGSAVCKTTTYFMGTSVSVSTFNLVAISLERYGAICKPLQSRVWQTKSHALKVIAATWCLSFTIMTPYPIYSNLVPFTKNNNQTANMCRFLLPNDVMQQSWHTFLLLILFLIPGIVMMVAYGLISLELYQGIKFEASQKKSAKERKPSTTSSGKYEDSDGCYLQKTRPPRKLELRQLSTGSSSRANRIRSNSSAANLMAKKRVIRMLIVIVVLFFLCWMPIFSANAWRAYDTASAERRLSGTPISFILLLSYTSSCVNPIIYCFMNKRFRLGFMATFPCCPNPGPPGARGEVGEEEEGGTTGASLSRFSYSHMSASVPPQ
# UniProt P32238, whole entry V125A: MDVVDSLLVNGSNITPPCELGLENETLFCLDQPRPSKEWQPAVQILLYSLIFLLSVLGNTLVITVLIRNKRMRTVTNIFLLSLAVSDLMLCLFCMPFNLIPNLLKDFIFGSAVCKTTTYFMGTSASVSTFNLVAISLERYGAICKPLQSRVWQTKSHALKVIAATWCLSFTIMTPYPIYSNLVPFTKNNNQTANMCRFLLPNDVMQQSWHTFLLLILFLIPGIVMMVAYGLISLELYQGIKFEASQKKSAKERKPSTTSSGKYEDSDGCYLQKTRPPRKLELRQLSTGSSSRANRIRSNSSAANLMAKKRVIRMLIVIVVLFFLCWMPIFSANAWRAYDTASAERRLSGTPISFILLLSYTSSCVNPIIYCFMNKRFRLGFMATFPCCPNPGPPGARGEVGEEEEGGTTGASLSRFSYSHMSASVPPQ
# Assays:
# CCK1R WT [1] = target: T1, CCK1R WT (Homo sapiens, UniProt P32238); experiment: Competition binding with 125I-BDZ-1, CHO membranes
# CCK1R WT [2] = target: T1, CCK1R WT; experiment: Competition binding with 125I-CCK, CHO membranes
# CCK2R WT [3] = target: T2, CCK2R WT (Homo sapiens, UniProt P32239); experiment: Competition binding with 125I-BDZ-2, CHO membranes
# T2 sequence (P32239 1-447): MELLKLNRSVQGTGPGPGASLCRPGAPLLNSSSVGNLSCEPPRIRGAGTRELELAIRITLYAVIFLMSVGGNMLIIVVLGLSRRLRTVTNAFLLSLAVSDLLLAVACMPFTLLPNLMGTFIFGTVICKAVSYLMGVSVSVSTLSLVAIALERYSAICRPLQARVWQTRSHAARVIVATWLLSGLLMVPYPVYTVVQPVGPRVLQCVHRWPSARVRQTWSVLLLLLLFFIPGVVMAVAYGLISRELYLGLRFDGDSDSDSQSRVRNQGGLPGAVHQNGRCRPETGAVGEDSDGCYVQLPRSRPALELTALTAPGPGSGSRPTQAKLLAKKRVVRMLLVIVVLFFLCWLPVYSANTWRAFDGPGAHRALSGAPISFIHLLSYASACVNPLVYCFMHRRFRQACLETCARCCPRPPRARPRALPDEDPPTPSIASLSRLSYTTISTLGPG
# CCK2R WT [4] = target: T2, CCK2R WT; experiment: Competition binding with 125I-CCK, CHO membranes
# CCK1R V125A (V3.36A) = CCK1R V125A (V3.36A) (Homo sapiens, UniProt P32238, V125A); experiment: cell-based
# CCK1R WT [5] = target: T1, CCK1R WT; experiment: cell-based
IC50 (CCK1R WT [1]),Kb (CCK1R WT [1]),IC50 (CCK1R WT [2]),Kb (CCK1R WT [2]),Kb (CCK2R WT [3]),Kb (CCK2R WT [4]),EC50 (CCK1R V125A (V3.36A)),EC50 (CCK1R WT [5]),SMILES
0.513 µM,0.166 µM,0.0302 µM,0.0245 µM,0.0245 µM,0.0708 µM,0.00309 µM,,"CC(C)N(Cc1ccccc1)C(=O)CN1C(=O)[C@@H](Cc2c[nH]c3ccccc23)c2nnc(-c3ccccc3)n2-c2ccccc21 [CE-326597, N-benzyl-2-[(4S)-4-(1H-indol-3-ylmethyl)-5-oxo-1-phenyl-4,5-dihydro-6H-[1,2,4]triazolo[4,3-a][1,5]benzodiazepin-6-yl]-N-isopropylacetamide]"
,0.912 µM,0.0389 µM,0.0288 µM,0.0692 µM,0.214 µM,,0.000417 µM,"Cc1cc(C)cc(C[C@H]2CCCCN2C(=O)CN2C(=O)[C@@H](Cc3n[nH]c4ccccc34)c3nnc(-c4ccccc4)n3-c3ccccc32)c1 [PF-04756956, (4S)-6-{2-[(2R)-2-(3,5-dimethylbenzyl)piperidin-1-yl]-2-oxoethyl}-4-(1H-indazol-3-ylmethyl)-1-phenyl-4H-[1,2,4]triazolo[4,3-a][1,5]benzodiazepin-5(6H)-one]"
